Entries after “also recorded” stand apart in the source; their conditions may differ.

This is an account of results in US20220273926A1, “DRUG DELIVERY USING MICRONEEDLE ARRAYS” (BOARD OF REGENTS OF THE UNIVERSITY OF NEBRASKA, priority 2019, published 2022).

A short description of data set [1]: Drug adsorption to the bandage: solution perfused through the MNAs. The data set is classed as physicochemical. To be noted: perfusion through bandage and MNAs; BSA 54 ng/mL, cefazolin 16 μg/mL.
A short description of data set [2]: Release profile from hydrogel-filled MNAs. In kind it is physicochemical. The protocol:
Release Profile Experimentation: Three different concentrations of hydrogel were studied for evaluating release kinetics of BSA as protein and Rhodamine B as neutral charge molecule from alginate and PEGDA hydrogels. BSA solution (ThermoFisher Scientific, Micro BCA™ Protein Assay Kit) mixed with three different concentrations of alginate gel (1.2%, 1.8%, and 2.5% (w/v)). This stock solution with 2000 μg/mL of BSA diluted with alginate solutions to reach 15 μg/mL final concentration of BSA. MNAs were filled with this BSA-containing alginate solution and Calcium Chloride (CaCl2) used for crosslinking following this protocol: first placing MNAs in 3% (w/v) agarose gel containing 2% (v/v) CaCl2 for few minutes and then pipetting additional 2% (v/v) CaCl2 over the tops to ensure complete crosslinking.
To perform a 3-day long release study, each needle array was placed in 0.5 mL of PBS. Samples were taken from solution at each time point over the course of 72 hrs and were stored in micro vials at room temperature over the duration of the release. […] Once reagents and samples were mixed, plates were incubated at 37° C. for an hour, and a plate reader (BioTech) used to read the absorption. Absorption values from the plate reader converted to concentrations using a calibration curve. […]

Data set [3] relates to full-thickness wounds on the dorsum of Yorkshire pigs. To be noted: pig, in vivo.
Data set [4] has as its system full-thickness skin wounds of diabetic (Lepr^db) mice. To be noted: 20-day procedure; all study groups, no significant difference between groups. The source says:
On the day of surgery, mice received a full thickness (1×1 cm^2) skin wound on their dorsum. Mice with the full thickness (1×1 cm^2) wound on their dorsum were kept untreated for 5 days to allow eschar formation. Animals received treatment via three different delivery methods on days 5 and 7 post-surgery. […] Similar to in vitro experiments, to minimize the potential injury upon the delivery of therapeutics intradermally using LJI, a layer of agarose was placed between the wound and the nozzle.
Small Animal studies: Murine animal procedures were approved by the Institutional Animal Care and Use Committee (IACUC) of the University of Nebraska, Lincoln. Six to seven weeks old B6.BKS(D)-Lepr^db/J mice were obtained from the Jackson Laboratory (Bar Harbor, Me.). Since this mouse strain had congenic obesity, the animals were put on a special food diet. […] On day 0 of the study, 5% isoflurane was provided via a nose cone for anesthetization of animals and 3% isoflurane was used for maintaining sedation. The hair on the dorsal area was shaved, the skin was sterilized, and a full-thickness skin cut of 1 cm×1 cm was created. Buprenorphine SR was administered for pain relief at the time of surgery.
Animals received treatments on day 5 and day 7 post-surgery. […]

For bovine serum albumin [BSA], the “temporal changes in the drug concentration within the perfused solution” value in data set [1] is given as “not statistically significant; also recorded: insignificant change in concentration”. In data set [2] (PEGDA 23% (v/v), 3-day study), the “release pattern from PEGDA-filled MNAs” value is given as “the same release pattern as alginate”. Further, in data set [2] (alginate, three concentrations, 3 mm and 2 mm MNAs, 72 hrs in PBS), the “release profile from alginate-filled MNAs” value was “curved burst release over the first 6 hours, with slower, more linear release over the next 3 days”.
Take “vascular endothelial growth factor [VEGF]”: the “inflammatory response (CD3 staining)” value in data set [3] was “did not generate a significant inflammatory response”. For the same substance, in data set [4], the “animals' weight increase” value was 16%.
